# According to patent US20060252744A1 (priority 2005, published 2006):
# Amino acid sequences for entries named in this document (tags omitted).
# UniProt P14416, whole entry: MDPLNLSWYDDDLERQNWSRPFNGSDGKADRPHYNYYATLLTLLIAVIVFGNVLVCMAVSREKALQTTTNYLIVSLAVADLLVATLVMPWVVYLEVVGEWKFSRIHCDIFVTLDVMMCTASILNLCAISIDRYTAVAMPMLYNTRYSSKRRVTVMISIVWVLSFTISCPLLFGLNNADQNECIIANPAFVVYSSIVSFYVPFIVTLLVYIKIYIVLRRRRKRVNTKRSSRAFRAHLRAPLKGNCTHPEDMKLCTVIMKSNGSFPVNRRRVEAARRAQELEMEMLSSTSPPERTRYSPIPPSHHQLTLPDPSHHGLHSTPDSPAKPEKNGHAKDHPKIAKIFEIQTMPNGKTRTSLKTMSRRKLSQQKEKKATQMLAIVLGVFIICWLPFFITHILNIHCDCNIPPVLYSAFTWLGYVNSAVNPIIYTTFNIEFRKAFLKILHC
# Target: human D2 dopamine receptor (Homo sapiens, UniProt P14416)
# Assay: R-SAT functional receptor assay, D2 receptor co-expressed with Gαo
smiles,measurement,value
CN1CCN(C2Cc3ccccc3Sc3ccc(Cl)cc32)CC1.O=C(O)/C=C\C(=O)O (stereo not shown) [octoclothepin],"D2 basal (basal response, no drug = 100%)",76 +/− 4%
